Experimental data published in patent publication US20080070859A1, “Compounds resistant to metabolic deactivation and methods of use” (priority 2002, published 2008).

How the values were obtained:
[1] = HPLC stability analysis: hydrolysis of the prodrug to Cordycepin in phosphate buffer; type: physicochemical; conditions: 0.63 mM in 30 mM phosphate buffer (pH 7.3) containing 5% DMSO, 37 C
Method: To analyze the half-life of thioaminal prodrugs, HPLC stability analysis was performed on the following Cordycepin prodrugs. Solutions (0.63 mM) of each of the following compounds was prepared in 30 mM phosphate buffer (pH 7.3) containing 5% DMSO and incubated at 37 C.

[2] = tested on: Leukemia cell lines (MOLT, HL-69, and CEM/Cl); experiment: MTT assay of cell viability, overall comparison with Cordycepin; conditions: both in the presence and absence of ADA inhibitor
Method: The in vitro cytotoxicities of thioaminal prodrugs of Cordycepin were compared to the parent drug Cordycepin using a standard MTT assay of cell viability (Hansen et al. (1989) J. Immunol. Meth. 119:203-10). Leukemia cell lines growing in the exponential phase (MOLT, […], and CEM/Cl) were plated at a final concentration of 1×10^5 cells/ml and exposed to serial dilutions of the Cordycepin prodrugs. In a subset of the experiments (denoted by “+”), the cells were preincubated with 1 μM of the ADA inhibitor 2′-deoxycoformycin for 30 minutes prior to addition of prodrug. Cell viability was determined after incubation for 5 days at 37 C by addition of 3-(4,5-dimethylthizaol-2-yl)-2,5-diplenyl-tetrazolium dye. IC50 was defined as the drug concentration that reduced cell viability 50% in comparison with the appropriate control.

6-N-(4-N-acetylbenzylthio)methyl-Cordycepin [8b]
t½ (time point at which half of the Cordycepin prodrug was hydrolysed to Cordycepin) [1]: 28 h | cytotoxic potency compared to Cordycepin [2]: more potent cytotoxic agents than Cordycepin
